Results reported in paper PMC6678253, “The 1,3,5-Triazine Derivatives as Innovative Chemical Family of 5-HT6 Serotonin Receptor Agents with Therapeutic Perspectives for Cognitive Impairment” (International Journal of Molecular Sciences, 2019).

Conditions: 200 µM, PBS pH 7.4, 5 h, room temperature; breakpoint for permeable compounds Pe ≥ 1.5 × 10^−6 cm/s

Pe (permeability coefficient) ± SD: 0.56 ± 0.1 10^−6 cm/s
SMILES: CCn1cc(C(=O)O)c(=O)c2cc(F)c(N3CCNCC3)cc21 [NFX, norfloxacin]
